Data from patent US20060002891A1, “Cytomodulating conjugates of members of specific binding pairs” (SangStat Medical Corporation, priority 1991, published 2006).

Tests used:
[1] = test system: C57BL6 stimulator to BALB/c responder mixed lymphocyte reactions; settings: for effect on MLR at high concentrations: 10 μg/ml, 3H-thymidine incorporation day 5; for proliferation in MLR at lower doses: compared with cultures with no additive
[2] = test system: C57BL/6 heterotopic cardiac allografts in BALB/c recipients; assay: Heterotopic cardiac allograft survival; assay type: in vivo, mouse; settings: for graft survival, immunized mice: BALB/c immunized with KLH-FITC, daily 50 μg/Kg for 30 days
Description: Mice, immunizations, injections, and cardiac allograft: Groups of 4 BALB/c or C57BL/6 male mice 9-10 weeks of age (Simonsen Laboratories, Gilroy, Calif.) were used throughout the experiments. BALB/c mice were primed and boosted with injections of 20 μg KLH-FITC prepared in CFA or IFA (Complete and Incomplete Freund's Adjuvants respectively; Sigma Chemical Co.) delivered sub-cutaneously in the right hind footpad. At each time point indicated, the mice were anesthetized with 65% CO2 and bled via the retroorbital plexus. Serum was separated from the sample and either tested in ELISA or passed over a FITC bound column prepared according to the manufacturers instructions (Pharmalink kit, Pierce). Anti-FITC antibodies were eluted from the column with pH 4.0 Tris-Hcl and extensively dialyzed against PBS pH 7.4.
C57BL/6 mice were heavily anesthetized with Metofane (methoxyflurane, Pittmann-Moore, Mundelein, Ill.), their hearts removed and the organ flushed with heparinised Ringers lactate. Heterotopic cardiac transplant to BALB/c recipients was performed according to the method of Ono and Lindsey (1969) J. Thorac. Cardiovasc. Surg. 7:225-229. Treatment with 50 μg/Kg/day (1 μg/mouse) IL2-FITC conjugate or IL2 alone was delivered via the tail veins in 200 μl PBS. Graft survival was evaluated daily by direct palpation. Suspected rejection was confirmed by opening the peritoneal cavity of the recipient and direct observation of the graft. All animals were treated and maintained in accordance with public health service guidelines.

Substance | toxicity to proliferating T-cells [1] | effect on MLR at high concentrations [1] | proliferation in MLR at lower doses [1] | increase in graft survival versus non-immunized/untreated controls ([2]; 38.7±7.1 days versus day 9±0.7) [fold] | graft survival, immunized mice [2] [days] | day of graft rejection, nonimmunized mice ([2]; nonimmunized BALB/c, treated) [days]
IL2-FITC: human IL2 coupled to fluorescein 5-isothiocyanate, mean F:P ratio of 1 | not toxic | accelerate the MLR | proliferate equally as well or better | > 4 | 38.7 ± 7.1 | 9.4 ± 1.1
IL2: human IL2 (PeproTech), unlabeled cytokine control [reference compound] | – | accelerate the MLR | proliferate equally as well or better | – | 10 ± 1.4 | –
